Reference: paper PMC5419078 (mAbs, 2017)

Tests used:
[1] = biological target: T1, recombinant human soluble TNF (silkworm baculovirus expression system) (human, UniProt P01375 77-233); experiment: AUC; FDS-SV, 25 nM Alexa Fluor 488-labeled antagonist with 0–25 nM TNF in PBS with 0.1 mg/mL lysozyme, incubated at 20°C for 2 hours, 42,000 rpm; settings: both partners purified
T1 construct: tumor necrosis factor (TNF), human, recombinant soluble form; also called tumor necrosis factor; baculovirus-expressed TNF; source: silkworm baculovirus expression system (ProCube, Sysmex), purified

[2] = biological target: T1, recombinant human soluble TNF (silkworm …); experiment: AUC; FDS-SV, 25 nM Alexa Fluor 488-labeled antagonist with 0–25 nM TNF in human serum, incubated at 20°C for 2 hours, 42,000 rpm; HSA-bilirubin signal subtracted; settings: both partners purified

B1: Alexa Fluor 488-labeled etanercept (Fc fusion, human, UniProt P20333 23-257, looked up)
chain: LPAQVAFTPYAPEPGSTCRLREYYDQTAQMCCSKCSPGQHAKVFCTKTSDTVCDSCEDSTYTQLWNWVPECLSCGSRCSSDQVETQACTREQNRICTCRPGWYCALSKQEGCRLCAPLRKCRPGFGVARPGTETSDVVCKPCAPGTFSNTTSSTDICRPHQICNVVAIPGNASMDAVCTSTSPTRSMAPGAVHLPQPVSTRSQHTQPTPEPSTAPSTSFLLPMGPSPPAEGSTGD
modifications: Alexa Fluor 488 fluorescent dye (site not stated)
notes: Same chain as m4 with the fluorescent label; source: bought: Takeda Pharmaceutical Company Limited (Enbrel); labeled with Alexa Fluor 488, purified by SEC
stoichiometry N [1]: 1 etanercept per TNF trimer | fraction of etanercept uncomplexed at an equimolar ratio [2]: ~0.2 fraction
